# Cyclic peptide permeability, from CycPeptMPDB

Collected by the curators of CycPeptMPDB (Li et al. 2023) from Townsend et al. 2020, doi:10.26434/chemrxiv.13335941.v1.

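Lipid, pH, incubation time, direction and concentration are not recorded in the data file. Other peptides of the study may be missing here. Peptides that the database sets to -10, its floor, are left out.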

PAMPA measures passive passage through an artificial lipid membrane. Permeability is in 10^-6 cm/s, converted from the database's log10 values; higher is more permeable.

| structure (SMILES) | PAMPA (10^-6 cm/s) |
|---|---|
| CC(C)C[C@@H]1C(=O)N[C@@H](Cc2ccccc2)C(=O)N[C@@H](Cc2ccccc2)CC(=O)N[C@H](CC(C)C)C(=O)N[C@H](CC(C)C)C(=O)N2CCC[C@@H]2C(=O)N1C | 4.8 |
| CCCN1CC(=O)N(C)[C@@H](CC(C)C)C(=O)N(C)[C@@H](CC(C)C)C(=O)N2CCC[C@@H]2C(=O)N(C)[C@H](CC(C)C)C(=O)N[C@@H](Cc2ccccc2)C(=O)N2CCC[C@H]2C1=O | 6.9 |
| CCCN1CC(=O)N[C@@H](CC(C)C)C(=O)N[C@@H](CC(C)C)C(=O)N2CCC[C@@H]2C(=O)N[C@@H](CC(C)C)C(=O)N[C@@H](Cc2ccccc2)C(=O)N2CCC[C@H]2C1=O | 0.28 |
| CC(C)C[C@@H]1C(=O)N2CCC[C@@H]2C(=O)N(C)[C@@H](CC(C)C)C(=O)N[C@@H](Cc2ccccc2)C(=O)N2CCC[C@@H]2C(=O)N[C@H](C)C(=O)N[C@H](CC(C)C)C(=O)N1C | 0.78 |
| CC(C)C[C@@H]1NC(=O)[C@@H]2CCCN2C(=O)[C@@H](CC(C)C)NC(=O)[C@H](CC(C)C)N(C)C(=O)[C@@H](C)N(C)C(=O)[C@H]2CCCN2C(=O)[C@H](Cc2ccccc2)NC1=O | 0.44 |
| CC(C)C[C@@H]1C(=O)N2CCC[C@H]2C(=O)N(C)[C@H](CC(C)C)C(=O)N[C@@H](Cc2ccccc2)C(=O)N2CCC[C@H]2C(=O)N(C)[C@H](C)C(=O)N(C)[C@@H](CC(C)C)C(=O)N1C | 3.5 |
| CC(C)C[C@@H]1NC(=O)[C@H](C)NC(=O)[C@H](Cc2ccccc2)NC(=O)CN(Cc2ccccc2)C(=O)[C@H]2CCCN2C(=O)CN(Cc2ccccc2)C1=O | 0.93 |
| CC(C)C[C@@H]1NC(=O)[C@@H](C)NC(=O)[C@H](Cc2ccccc2)NC(=O)[C@H](CC(C)C)NC(=O)[C@@H]2CCCN2C(=O)C[C@H](Cc2ccccc2)NC1=O | 0.25 |
| CC(C)C[C@@H]1NC(=O)[C@H]2CCCN2C(=O)[C@H](CC(C)C)NC(=O)[C@@H](CC(C)C)NC(=O)[C@@H](C)NC(=O)[C@H](Cc2ccccc2)NC1=O | 0.16 |
| CC(C)C[C@@H]1NC(=O)[C@H]2CCCN2C(=O)[C@H](CC(C)C)N(C)C(=O)[C@@H](CC(C)C)NC(=O)[C@@H](C)N(C)C(=O)[C@H](Cc2ccccc2)NC1=O | 3 |
| CC(C)C[C@@H]1NC(=O)[C@@H]2CCCN2C(=O)C[C@H](Cc2ccccc2)NC(=O)[C@H](CC(C)C)N(C)C(=O)[C@@H](C)NC(=O)[C@H](Cc2ccccc2)NC1=O | 1 |
| CC(C)C[C@@H]1NC(=O)[C@@H]2CCCN2C(=O)[C@@H](CC(C)C)NC(=O)[C@@H](CC(C)C)NC(=O)[C@H](C)N(C)C(=O)[C@H](Cc2ccccc2)NC1=O | 1.6 |
| CC(C)C[C@@H]1C(=O)N2CCC[C@H]2C(=O)N(C)[C@@H](CC(C)C)C(=O)N[C@@H](Cc2ccccc2)C(=O)N2CCC[C@H]2C(=O)N(C)[C@H](C)C(=O)N(C)[C@@H](CC(C)C)C(=O)N1C | 5.6 |

Extract of 2 entries:

| structure (SMILES) | PAMPA (10^-6 cm/s) |
|---|---|
| CC(C)C[C@@H]1C(=O)N2CCC[C@@H]2C(=O)N(C)[C@@H](CC(C)C)C(=O)N[C@@H](Cc2ccccc2)C(=O)N2CCC[C@@H]2C(=O)N[C@H](C)C(=O)N[C@H](CC(C)C)C(=O)N1C | 0.78 |
| CC(C)C[C@@H]1C(=O)N2CCC[C@H]2C(=O)N(C)[C@H](CC(C)C)C(=O)N[C@@H](Cc2ccccc2)C(=O)N2CCC[C@H]2C(=O)N(C)[C@H](C)C(=O)N(C)[C@@H](CC(C)C)C(=O)N1C | 3.5 |